These results are taken from PMC7723054.

B1: hsa-mir-4423 (structured_RNA)
RNA: GGGACCUGCGUGAAACGGAUAUGCCUGAGGUGUACGAAGUUUCAGCCCAUGCUGUUUAAGCCUAGCAUAGGCUGAAGCUUCGUGCAC
B2: hsa-mir-548as (structured_RNA)
RNA: GGGAAACACUAGGAAGGCCCGUCACUGCGGUGUACGAAGUUUCAGCUUUGCCGUUGCUUUUAAUGGUAAAGCUGAAGCUUCGUGCAC
B3: hsa-mir-4802 (structured_RNA)
RNA: GGGAAUCGGUUGCAAAGGGGACAUAUUCGGUGUACGAAGUUUCAGCUGUUAGUGUUCAAGUCUACAGCUGAAGCUUCGUGCAC
B4: hsa-mir-7843 (structured_RNA)
RNA: GGGAACGGAAUGAAUCCCGGAACUUUCCGGUGUACGAAGUUUCAGCUCCUGAUCUGAUGGAAGUCAUGAGCUGAAGCUUCGUGCAC
B5: hsa-mir-8063 (structured_RNA)
RNA: GGGACCUUACCGUUAUCCACGGAACGUCGGUGUACGAAGUUUCAGCAUGAGAAAUUGGUUUCAAGCUGAAGCUUCGUGCAC
B6: hsa-mir-548c (structured_RNA)
RNA: GGGAACGACAGCCGAGUCAAUAAGGCAGGGUGUACGAAGUUUCAGCUUUGCCAUUACUUUCAGUAGCAAAGCUGAAGCUUCGUGCAC
B7: hsa-mir-96 (structured_RNA)
RNA: GGGAAACGCAAGACGGGUCCUCUCCAUGGGUGUACGAAGUUUCAGCUUUUGCUUGUGUCUCUCCGCUCUGAGCAAUCGCUGAAGCUUCGUGCAC
B8: hsa-mir-6733 (structured_RNA)
RNA: GGGAAUCGAGUUCCAGCCUACACAAGAGGGUGUACGAAGUUUCAGCCAGAGUUCCCUUCUUGUGAGCUCAGGCUGAAGCUUCGUGCAC
B9: hsa-mir-922 (structured_RNA)
RNA: GGGAAGUAACGUAUGUGCGAAUCUCUGCGGUGUACGAAGUUUCAGCCUGUCCUGGACUGGGGUCAGACUGUGCCCCGAGGAGAAGCAGGCUGAAGCUUCGUGCAC
B10: hsa-mir-3615 (structured_RNA)
RNA: GGGAAGGUUUACGCCAACACUUCAAAGGGGUGUACGAAGUUUCAGCGAUUGGUCUGUGGUCCUCUCGCUGAAGCUUCGUGCAC
B11: hsa-mir-4656 (structured_RNA)
RNA: GGGAACCAGUAAUACGGGAGAACAGUCCGGUGUACGAAGUUUCAGCCUGUGGCCGGUCCCAGGCUGAAGCUUCGUGCAC
B12: NEAT1_ParasoR_ID39 (structured_RNA)
RNA: GGGACGUGACUCUACUCCAAAAUAGCCAGGUGUACGAAGUUUCAGCGUGCUCUGCACGCUGAAGCUUCGUGCAC
B13: hsa-mir-3668 (structured_RNA)
RNA: GGGAACGCUGGCCACUGACAGGCAUAAUGGUGUACGAAGUUUCAGCAAAUAGUUUCUAUCAAAAUAGUUUGCUGAAGCUUCGUGCAC
B14: hsa-mir-4706 (structured_RNA)
RNA: GGGACGAAUGCCAGAAGCAUGCUACUCAGGUGUACGAAGUUUCAGCGCUUCUGCGUUAUCUGGAAGGGCUGAAGCUUCGUGCAC
B15: hsa-mir-548d-1 (structured_RNA)
RNA: GGGAAACACUGGUAGCUCGUAGAACCCCGGUGUACGAAGUUUCAGCUUUGCCUGUAAAAGUAAUGGCAAAGCUGAAGCUUCGUGCAC
B16: hsa-mir-6072 (structured_RNA)
RNA: GGGAACCUAAAGCAUGUGCGACUGUGAUGGUGUACGAAGUUUCAGCCUUUGCUACUGCUCGCUGAAGCUUCGUGCAC
B17: hsa-mir-4272 (structured_RNA)
RNA: GGGAAGAAUCAUGCGUGGGCCUCGAUCUGGUGUACGAAGUUUCAGCAAUGCAUAGAAAGCAUUGCUGAAGCUUCGUGCAC
B18: hsa-mir-4472-1 (structured_RNA)
RNA: GGGAAAUGGACUCGGAAGGAAUUGCUCCGGUGUACGAAGUUUCAGCCACUCUCCCUAAUGGGGCUGAAGACAGCUCAGGGGCAGGGUGGCUGAAGCUUCGUGCAC
B19: hsa-mir-4457 (structured_RNA)
RNA: GGGAACCGUAGUGCAACCUGACUAGAUAGGUGUACGAAGUUUCAGCGUGAGUUAGAAAAGCUCAAUUCACGCUGAAGCUUCGUGCAC
B20: PARIS_ID47 (structured_RNA)
RNA: GGGAGCAUAGCACCGCCUCAUGGUACAUGGUGUACGAAGUUUCAGCGUGAUGGCUUUGAGGUUAUUUGCAGUUUCCUAGCCAUCUCGCUGAAGCUUCGUGCAC
B21: hsa-mir-548al (structured_RNA)
RNA: GGGCAUCGUGCGCCAAUACCCAGGAUUAGGUGUACGAAGUUUCAGCUGUUUUUGCCAUUAAAAAUAAUGGCAUUAAAAGUAAUGGCAAAAACGGCUGAAGCUUCGUGCAC
B22: hsa-mir-4741 (structured_RNA)
RNA: GGGAUUUCCGAAGGCUCCGAACCCCUUGGGUGUACGAAGUUUCAGCCCCGGCCGGCAGCCCCCGGCCUUAAAGCGCGGGGCUGAAGCUUCGUGCAC
B23: hsa-mir-6079 (structured_RNA)
RNA: GGGAAAGCACGAACAUUACUCGACACCCGGUGUACGAAGUUUCAGCCCAAAGAAACUUUUUUGGGCUGAAGCUUCGUGCAC
B24: hsa-mir-6717 (structured_RNA)
RNA: GGGCAAUCCGAUGAUGGGCUCAACUCCCGGUGUACGAAGUUUCAGCGAGACAACUUCCCAGUCUCGCUGAAGCUUCGUGCAC
B25: hsa-mir-4689 (structured_RNA)
RNA: GGGAUGAAGUCGGCUCAGUGCGGUAAGUGGUGUACGAAGUUUCAGCGGCCGGUCAGGCAGCUGAAGCUUCGUGCAC
B26: hsa-mir-6731 (structured_RNA)
RNA: GGGACUGUGUUGUACCCACGCGCAAAAUGGUGUACGAAGUUUCAGCUGGAAGCUCCAGGUGCCAACCACCUGCCUCUAGCUGAAGCUUCGUGCAC

This is one part of the list.

The first experiment addresses T1, LIN28A (human?, UniProt Q9H9Z2 1-209).
T1 sequence: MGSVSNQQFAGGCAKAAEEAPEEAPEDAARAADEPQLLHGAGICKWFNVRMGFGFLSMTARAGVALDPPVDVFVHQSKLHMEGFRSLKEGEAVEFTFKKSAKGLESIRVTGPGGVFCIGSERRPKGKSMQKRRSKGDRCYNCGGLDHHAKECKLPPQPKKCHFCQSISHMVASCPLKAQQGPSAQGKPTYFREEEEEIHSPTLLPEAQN
Put plainly: FOREST: bead pull-down of RNA structure library v1, barcode microarray; U1A/LIN28A: 20 mM HEPES pH 7.5, 80 mM KCl, 20 mM NaCl, 10% glycerol, 2 mM DTT, 0.1 ug/uL BSA, 4 C; BG4/CIRBP/DHX36: 10 mM Tris-HCl pH 7.5, 100 mM KCl (or LiCl),; high values mean tight binding.
B1 yielded a binding signal of -1.03 z-score.

On to B2, for which the binding signal is -1.07 z-score.

Regarding B3, the binding signal is -1.07 z-score.

In the case of B4, the binding signal was -1.04 z-score.

Molecule B5 gave a binding signal of -1.05 z-score.

The molecule B6 returned a binding signal of -1.05 z-score.

The molecule B7 gave a binding signal of -1.02 z-score.

Molecule B8 gave a binding signal of -0.993 z-score.

In turn, B9 returned a binding signal of -1.02 z-score.

B10 gave a binding signal of -0.996 z-score.

Molecule B11 registered a binding signal of -1.03 z-score.

For B12, the binding signal is -1.06 z-score.

B13 came in with a binding signal of -1.04 z-score.

B14 had a binding signal of -1.03 z-score.

Regarding B15, the binding signal is -1.03 z-score.

Molecule B16 registered a binding signal of -1.03 z-score.

Molecule B17 yielded a binding signal of -1.01 z-score.

In turn, B18 had a binding signal of -1.05 z-score.

B19 came in with a binding signal of -1.03 z-score.

Molecule B20 returned a binding signal of -1.04 z-score.

Molecule B21 had a binding signal of -0.994 z-score.

B22: the binding signal was -1.07 z-score.

The molecule B23 showed a binding signal of -1.07 z-score.

The molecule B24 returned a binding signal of -1.02 z-score.

B25 registered a binding signal of -0.994 z-score.

With B26, the binding signal was -0.995 z-score.

The next experiment has as its target T2, CIRBP (Homo sapiens, UniProt Q14011 1-172).
T2 sequence: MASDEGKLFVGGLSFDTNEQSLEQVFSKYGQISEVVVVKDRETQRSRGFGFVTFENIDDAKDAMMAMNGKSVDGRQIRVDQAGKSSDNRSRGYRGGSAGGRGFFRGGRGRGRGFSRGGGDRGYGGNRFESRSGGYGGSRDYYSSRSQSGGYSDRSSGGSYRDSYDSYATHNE
Described as above.
For the molecule B1, the binding signal was 0.384 z-score.

The molecule B2 displayed a binding signal of 0.587 z-score.

For the molecule B3, the binding signal turned out to be 0.0146 z-score.

B4 registered a binding signal of -0.393 z-score.

As to B5, the binding signal is -0.361 z-score.

Turning to B6, the binding signal was -1.49 z-score.

For B7, the binding signal was 0.561 z-score.

As to B8, the binding signal was found to be 0.0471 z-score.

B9 returned a binding signal of 0.275 z-score.

Molecule B10 registered a binding signal of -0.141 z-score.

In turn, B11 gave a binding signal of 0.394 z-score.

B12: the binding signal came out at 0.114 z-score.

As to B13, the binding signal is -0.125 z-score.

B14 returned a binding signal of -1.01 z-score.

Regarding B15, the binding signal is -0.311 z-score.

B16 registered a binding signal of -0.308 z-score.

As for B17, the binding signal worked out at 0.27 z-score.

B18 had a binding signal of 0.171 z-score.

The molecule B19 yielded a binding signal of -0.816 z-score.

B20 came in with a binding signal of -1.12 z-score.

Take B21: the binding signal was -1.09 z-score.

Turning to B22, the binding signal is -0.702 z-score.

For the molecule B23, the binding signal is 0.743 z-score.

As to B24, the binding signal is -0.66 z-score.

B25 came in with a binding signal of -0.708 z-score.

For B26, the binding signal was 0.149 z-score.

The next experiment addresses T3, DHX36 (Homo sapiens, UniProt Q9H2U1 1-1008).
T3 sequence: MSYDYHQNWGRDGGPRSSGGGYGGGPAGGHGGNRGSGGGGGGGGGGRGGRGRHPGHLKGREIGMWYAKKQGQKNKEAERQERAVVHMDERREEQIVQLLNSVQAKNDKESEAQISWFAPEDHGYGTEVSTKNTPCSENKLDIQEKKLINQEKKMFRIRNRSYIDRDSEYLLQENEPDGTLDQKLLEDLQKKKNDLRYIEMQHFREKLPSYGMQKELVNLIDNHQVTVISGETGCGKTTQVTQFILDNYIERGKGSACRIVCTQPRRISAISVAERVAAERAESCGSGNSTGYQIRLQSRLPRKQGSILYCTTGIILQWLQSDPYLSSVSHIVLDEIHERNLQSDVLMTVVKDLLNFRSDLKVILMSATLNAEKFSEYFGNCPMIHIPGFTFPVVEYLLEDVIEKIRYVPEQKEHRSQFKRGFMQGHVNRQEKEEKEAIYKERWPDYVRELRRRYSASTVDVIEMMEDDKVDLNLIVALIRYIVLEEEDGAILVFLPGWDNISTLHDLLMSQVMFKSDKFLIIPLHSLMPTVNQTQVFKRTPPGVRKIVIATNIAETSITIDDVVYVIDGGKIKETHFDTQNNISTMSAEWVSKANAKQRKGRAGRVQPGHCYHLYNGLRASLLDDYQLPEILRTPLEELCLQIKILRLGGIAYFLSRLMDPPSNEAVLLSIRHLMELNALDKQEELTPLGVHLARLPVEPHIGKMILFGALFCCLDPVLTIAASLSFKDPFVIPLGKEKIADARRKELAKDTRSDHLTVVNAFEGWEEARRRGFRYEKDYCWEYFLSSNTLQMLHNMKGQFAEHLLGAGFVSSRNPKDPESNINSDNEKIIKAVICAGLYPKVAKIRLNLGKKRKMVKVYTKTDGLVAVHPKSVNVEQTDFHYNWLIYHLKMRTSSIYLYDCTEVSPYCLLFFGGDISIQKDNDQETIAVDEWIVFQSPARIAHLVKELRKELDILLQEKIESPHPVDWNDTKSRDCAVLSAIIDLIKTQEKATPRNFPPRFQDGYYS
The description is as above.
B1 displayed a binding signal of -0.595 z-score.

Regarding B2, the binding signal was -0.851 z-score.

In turn, B3 gave a binding signal of -0.812 z-score.

B4: the binding signal is -1.21 z-score.

In the case of B5, the binding signal was -0.665 z-score.

Regarding B6, the binding signal was -0.431 z-score.

B7 gave a binding signal of -0.517 z-score.

With B8, the binding signal worked out at 0.373 z-score.

As to B9, the binding signal turned out to be 0.245 z-score.

In turn, B10 showed a binding signal of 0.12 z-score.

Turning to B11, the binding signal is -0.571 z-score.

In turn, B12 came in with a binding signal of -0.994 z-score.

B13: the binding signal is -1.01 z-score.

In the case of B14, the binding signal was -1.68 z-score.

Consider B15, for which the binding signal is -1.5 z-score.

For B16, the binding signal was -0.541 z-score.

As for B17, the binding signal amounted to 0.63 z-score.

The molecule B18 displayed a binding signal of -0.133 z-score.

For B19, the binding signal is -0.33 z-score.

B20 came in with a binding signal of -1.53 z-score.

Turning to B21, the binding signal is -1.04 z-score.

In turn, B22 showed a binding signal of 0.822 z-score.

B23 showed a binding signal of -0.0401 z-score.

In turn, B24 came in with a binding signal of -0.262 z-score.

B25 returned a binding signal of -0.275 z-score.

Molecule B26 had a binding signal of -0.593 z-score.
